By EC50 is commonly meant the concentration giving half of the maximal effect.

Protein sequences, listed by entry. Tags and fused reporters are not part of them. Lines headed by an entry give the natural chain unless they say otherwise; changes in a name come on top.
UniProt P41144: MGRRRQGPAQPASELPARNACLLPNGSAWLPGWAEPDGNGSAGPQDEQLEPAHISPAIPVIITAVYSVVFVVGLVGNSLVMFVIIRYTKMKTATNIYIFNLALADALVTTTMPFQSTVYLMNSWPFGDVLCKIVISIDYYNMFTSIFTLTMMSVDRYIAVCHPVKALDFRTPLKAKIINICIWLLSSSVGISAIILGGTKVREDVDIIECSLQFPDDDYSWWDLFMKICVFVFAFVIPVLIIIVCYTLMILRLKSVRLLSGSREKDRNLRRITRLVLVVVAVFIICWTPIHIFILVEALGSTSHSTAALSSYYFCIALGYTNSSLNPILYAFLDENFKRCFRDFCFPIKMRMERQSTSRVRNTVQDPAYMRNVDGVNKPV

In the experiment the target is K receptor (Cavia porcellus, UniProt P41144). Kind of experiment: [35S]GTPγS functional assay, guinea pig brain membranes, κ receptor. As to conditions: read-out: EC50, stimulation of [35S]GTPγS binding; guinea pig brain preparations. Format: biochemical. Background: GTPγS resists hydrolysis and so accumulates on activated G proteins.

Structures are written as SMILES.

On to `CN(C(=O)Cc1ccccc1)[C@H]1CC[C@@]2(CCCO2)C[C@@H]1N1CCCC1`, for which the EC50 turned out to be 0.0607 µM.

Source of the values: patent EP2340832A1, “Morphinan-6-one compounds for the treatment or prevention of neurodegenerative diseases” (Universität Innsbruck, priority 2009, dated 2011).
